Test results from ChEMBL document CHEMBL1142528 (J Med Chem, 2008).

Amino acid sequences for entries named in this document (tags omitted).
UniProt P28223, whole entry: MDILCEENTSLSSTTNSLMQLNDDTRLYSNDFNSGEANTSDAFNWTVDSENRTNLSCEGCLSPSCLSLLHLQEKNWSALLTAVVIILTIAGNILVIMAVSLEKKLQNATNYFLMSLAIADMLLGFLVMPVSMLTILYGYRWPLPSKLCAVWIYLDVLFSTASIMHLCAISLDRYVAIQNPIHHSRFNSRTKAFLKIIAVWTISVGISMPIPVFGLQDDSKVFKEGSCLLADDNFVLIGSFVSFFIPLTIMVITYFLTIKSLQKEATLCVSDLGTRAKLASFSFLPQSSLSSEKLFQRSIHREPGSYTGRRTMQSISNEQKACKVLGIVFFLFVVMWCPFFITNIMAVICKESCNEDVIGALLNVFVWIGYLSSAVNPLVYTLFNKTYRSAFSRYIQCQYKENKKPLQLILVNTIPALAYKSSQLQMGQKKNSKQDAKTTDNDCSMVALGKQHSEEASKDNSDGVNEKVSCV

Target: 5-hydroxytryptamine receptor 2A (Homo sapiens, UniProt P28223)
Test: Displacement of [3H]ketanserin from 5HT2A receptor expressed in NIH3T3 cells
Assay type: cell-based

CCCCCCc1ccc2c(c1)Cc1cc(OC)ccc1C2CN (stereo unspecified)
Ki: 43 nM
